{"sequences": {"note": "Chains of the proteins cited; added tags and fusions are not shown. Lines headed by an entry give the natural chain unless they say otherwise; changes in a name come on top.", "UniProt P37231": "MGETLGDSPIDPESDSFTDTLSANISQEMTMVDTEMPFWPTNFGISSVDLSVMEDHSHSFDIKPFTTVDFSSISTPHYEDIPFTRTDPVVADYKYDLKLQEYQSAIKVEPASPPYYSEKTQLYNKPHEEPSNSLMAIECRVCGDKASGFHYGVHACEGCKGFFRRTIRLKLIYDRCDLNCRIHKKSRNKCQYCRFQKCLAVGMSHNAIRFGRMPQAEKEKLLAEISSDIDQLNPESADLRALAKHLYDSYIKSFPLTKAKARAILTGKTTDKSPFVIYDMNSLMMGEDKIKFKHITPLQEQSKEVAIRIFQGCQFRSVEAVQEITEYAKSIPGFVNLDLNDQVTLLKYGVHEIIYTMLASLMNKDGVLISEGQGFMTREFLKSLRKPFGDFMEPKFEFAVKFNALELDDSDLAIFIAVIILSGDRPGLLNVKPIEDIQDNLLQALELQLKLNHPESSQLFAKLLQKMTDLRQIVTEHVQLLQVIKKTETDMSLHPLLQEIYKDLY"}, "source": "PubChem BioAssay AID631", "about": "(The Scripps Research Institute Molecular Screening Center, 2007)", "note": "Only a part is listed here, and it is no random draw. Active and inactive are the calls of the source. No stated cut-off is given here; in the data, active means activation above about 19%; inactive means the rest."}
{"target": "Peroxisome proliferator-activated receptor gamma (Homo sapiens) (UniProt P37231)", "test": "enhancers of SRC-1 binding to PPARgamma – biochemical, primary screen (AID 631);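 further: 0% = DMSO and 100% = reference agonist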", "conditions": "PPARgamma-SRC-1 coactivator recruitment biochemical assay; at 8 µM; stronger effect = higher value"}
{"smiles": "CC(C)C(=O)NC(Sc1ccccc1)C(Cl)(Cl)Cl", "note": "(stereo not given)", "activation": "inactive: 0.9%"}
{"smiles": "O=P(Nc1nccs1)(c1ccccc1)c1ccccc1", "activation": "inactive: 5.7%"}
{"smiles": "c1nnnn1CCn1cnnn1", "activation": "inactive: -0.9%"}
{"smiles": "CC(=O)NC(SC(=S)N(C)C)C(Cl)(Cl)Cl", "note": "(stereo not given)", "activation": "inactive: -5.3%"}
{"smiles": "O=C(OC1CN2CCC1CC2)c1cccc(Cl)c1", "note": "(stereo not given)", "activation": "inactive: 4.6%"}
{"smiles": "C(Cc1nn[nH]n1)Cc1nn[nH]n1", "activation": "inactive: 6.6%"}
{"smiles": "O=P(Nc1ccccn1)(c1ccc(Br)cc1)c1ccc(Br)cc1", "activation": "inactive: 5.3%"}
{"smiles": "CCC(=O)N1C2C3N(C(=O)CC)C1C1N(C(=O)CC)C(C(N1C(=O)CC)N3C(=O)CC)N2C(=O)CC", "activation": "inactive: 1.5%"}
{"smiles": "COC(=O)c1cc2c(s1)N=C(c1ccccc1)N(C)P2(=O)N1CCOCC1", "note": "(stereo not given)", "activation": "inactive: 2%"}
{"smiles": "CC(=O)NC(SC(=S)N(CC(C)C)CC(C)C)C(Cl)(Cl)Cl", "note": "(stereo not given)", "activation": "inactive: 3.4%"}
{"smiles": "Cc1ccc(OP(=O)(Nc2ccccn2)Oc2ccc(C)cc2)cc1", "activation": "inactive: -7.6%"}
{"smiles": "O=c1c2cc([N+](=O)[O-])ccc2[nH]c2c([N+](=O)[O-])cc([N+](=O)[O-])cc12", "activation": "inactive: 0.8%"}
{"smiles": "c1ccc(-c2nn[nH]n2)c(-c2nn[nH]n2)c1", "activation": "inactive: 2.7%"}
{"smiles": "CCOC(=O)NC(Sc1ccccc1)C(Cl)(Cl)Cl", "note": "(stereo not given)", "activation": "inactive: 1%"}
{"smiles": "CCNC(=S)/N=C(\\N)N[N+](=O)[O-]", "activation": "inactive: 1.6%"}
{"smiles": "O=C(NC1CCS(=O)(=O)C1)NP(=S)(Oc1ccccc1)Oc1ccccc1", "note": "(stereo not given)", "activation": "inactive: 12.5%"}
{"smiles": "CC(=O)Nc1ccc(Oc2c([N+](=O)[O-])cc([N+](=O)[O-])cc2[N+](=O)[O-])cc1", "activation": "inactive: -3.5%"}
{"smiles": "O=P1(Nc2nc3ccc(Cl)cc3s2)COc2ccccc2O1", "note": "(stereo not given)", "activation": "inactive: -0.6%"}
{"smiles": "CCOc1ccc(C2=NCC(CBr)S2)cc1", "note": "(stereo not given)", "activation": "inactive: 5.4%"}
{"smiles": "CC(C)(C)C(=O)NC(Sc1ccccc1)C(Cl)(Cl)Cl", "note": "(stereo not given)", "activation": "inactive: -2.5%"}
{"smiles": "Oc1ccccc1CNc1ccccn1", "activation": "inactive: 1.6%"}
{"smiles": "O=C(NC(Sc1ccncn1)C(Cl)(Cl)Cl)c1ccccc1", "note": "(stereo not given)", "activation": "inactive: -0.2%"}
{"smiles": "Cc1c2non([O-])c-2c(C)[n+](=O)[n+]1[O-]", "activation": "inactive: 5.1%"}
{"smiles": "CC(C)CC(=O)NC(Sc1ccc(Cl)cc1)C(Cl)(Cl)Cl", "note": "(stereo not given)", "activation": "inactive: -4.1%"}
{"smiles": "Cc1ccc(N/C(=N/P(=O)(N2CCOCC2)N2CCOCC2)N2CCOCC2)cc1", "activation": "inactive: -0.1%"}
{"smiles": "NC(=O)c1cc([N+](=O)[O-])cc([N+](=O)[O-])c1N", "activation": "inactive: 0.4%"}
{"smiles": "CN1CCCC(OC(=O)C(c2ccccc2)c2ccccc2)C1", "note": "(stereo not given)", "activation": "inactive: 10.2%"}
{"smiles": "Clc1ccc(Cl)c(NC2=NCC(CBr)S2)c1", "note": "(stereo not given)", "activation": "inactive: 8.2%"}
{"smiles": "COc1ccccc1OP(=O)(Nc1ccc(C)cn1)Oc1ccccc1OC", "activation": "inactive: 12.9%"}
{"smiles": "CCN(N=Nc1nonc1N)c1nonc1N", "activation": "inactive: -0.2%"}
{"smiles": "Cc1cc(SC(NC(=O)c2ccc(F)cc2)C(Cl)(Cl)Cl)ncn1", "note": "(stereo not given)", "activation": "inactive: -0.1%"}
{"smiles": "CCOP(=O)(Nc1ccccc1)OCC", "activation": "inactive: 2.8%"}
{"smiles": "O=[N+]([O-])c1ncn(CCn2ncnc2[N+](=O)[O-])n1", "activation": "inactive: -0.5%"}
{"smiles": "CCN(/C(=N/P(=O)(N1CCOCC1)N1CCOCC1)N1CCOCC1)c1ccc(OC)cc1", "activation": "inactive: -0.5%"}
{"smiles": "CC1CCN(C(=O)Oc2c(Cl)cc(Cl)c3cccnc23)CC1", "activation": "inactive: 4.7%"}
{"smiles": "CC(C)=N/N=C(\\N)N[N+](=O)[O-]", "activation": "inactive: -2.6%"}
{"smiles": "CN(C)C(=O)OCCc1n(C)cc[n+]1C", "activation": "inactive: -8.8%"}
{"smiles": "COc1ccc(C2=NCC(CBr)S2)cc1", "note": "(stereo not given)", "activation": "inactive: -3.5%"}
{"smiles": "Cc1ccc(NP(=O)(Oc2ccccc2)Oc2ccccc2)nc1", "activation": "inactive: -9.7%"}
{"smiles": "CCc1nc2c(n1)c1c(non1O)c1c2no[n+]1[O-]", "activation": "inactive: 1.6%"}
{"smiles": "O=[N+]([O-])c1cc([N+](=O)[O-])c(CCNc2ccccc2)c([N+](=O)[O-])c1", "activation": "inactive: 5.1%"}
{"smiles": "O=[N+]([O-])c1cccc2n[nH]nc12", "activation": "inactive: 8.8%"}
{"smiles": "CC(=O)N1C2C3N(C(C)=O)C1C1N(C(C)=O)C(C(N1C(C)=O)N3C(C)=O)N2C(C)=O", "activation": "inactive: 0.3%"}
{"smiles": "CCC(C)N(CC(C)C)C(=S)SC(NC(C)=O)C(Cl)(Cl)Cl", "note": "(stereo not given)", "activation": "inactive: 7.1%"}
{"smiles": "COP1(=S)c2c(C)nn(CCC#N)c2N=C(c2ccc(F)cc2)N1C", "note": "(stereo not given)", "activation": "inactive: 2.6%"}
{"smiles": "O=C(COc1ccccc1)OC1CN2CCC1CC2", "note": "(stereo not given)", "activation": "inactive: -0.4%"}
{"smiles": "O=P(Nc1ccccn1)(c1cccc2ccccc12)c1cccc2ccccc12", "activation": "inactive: 3.7%"}
{"smiles": "Cc1cc(SC(NC=O)C(Cl)(Cl)Cl)ncn1", "note": "(stereo not given)", "activation": "inactive: 9.5%"}
{"smiles": "Cc1cc(SC(NC(=O)c2ccccc2)C(Cl)(Cl)Cl)nc(C(C)C)n1", "note": "(stereo not given)", "activation": "inactive: 3.5%"}
{"smiles": "ClCCSc1nnc(-c2cccnc2)o1", "activation": "inactive: 3.6%"}
{"smiles": "CC(C)NC(=O)NP(=O)(Oc1ccccc1)Oc1ccccc1", "activation": "inactive: 15.5%"}
{"smiles": "CCN(CC)C(=S)SC(NC=O)C(Cl)(Cl)Cl", "note": "(stereo not given)", "activation": "inactive: -3.7%"}
{"smiles": "O=[N+]([O-])c1cc([N+](=O)[O-])c(-c2ccn[nH]2)s1", "activation": "inactive: 9.3%"}
{"smiles": "Cc1ccc2nc3c(c(C)c2c1)CC(C(Cl)Cl)S3", "note": "(stereo not given)", "activation": "inactive: 2.1%"}
{"smiles": "COc1ccc(N/C(=N/P(=O)(N2CCOCC2)N2CCOCC2)N2CCOCC2)cc1", "activation": "inactive: 4.3%"}
{"smiles": "Cc1c2c(nc3ccccc13)SC(C(Cl)Cl)C2", "note": "(stereo not given)", "activation": "inactive: 6.7%"}
{"smiles": "O=C(OC1CN2CCC1CC2)C12CC3CC(CC(C3)C1)C2", "note": "(stereo not given)", "activation": "inactive: -0.3%"}
{"smiles": "Cc1cc(=O)[nH]c(N[N+](=O)[O-])n1", "activation": "inactive: 4.4%"}
{"smiles": "COc1ccc2nc(NP(=O)(c3ccccc3)c3ccccc3)sc2c1", "activation": "inactive: -1.2%"}
{"smiles": "Cc1ccc(NCCc2c([N+](=O)[O-])cc([N+](=O)[O-])cc2[N+](=O)[O-])cc1", "activation": "inactive: 5.3%"}
{"smiles": "COc1cc(C2NCCC3(OCCO3)C2(C)C)cc(OC)c1OC", "note": "(stereo not given)", "activation": "inactive: 3.9%"}
{"smiles": "CCOP(=O)(Nc1cccc2ccccc12)OCC", "activation": "inactive: -0.2%"}
{"smiles": "COc1cc(C(=O)NCC2(N3CCOCC3)CCCCC2)cc(Cl)c1OC(C)C", "activation": "inactive: 10%"}
{"smiles": "Cc1cccc(OCC(=O)OC2CN3CCC2CC3)c1", "note": "(stereo not given)", "activation": "inactive: -4.6%"}
{"smiles": "CCOP1(=S)c2c(C)nn(CCC#N)c2N=C(c2ccc(F)cc2)N1C", "note": "(stereo not given)", "activation": "inactive: -4.9%"}
{"smiles": "O=[N+]([O-])c1ccc2c(c1)nnn2O", "activation": "inactive: -2.9%"}
{"smiles": "CCOP1(=S)c2c(C)nn(CCC#N)c2N=C(c2ccccc2F)N1C", "note": "(stereo not given)", "activation": "inactive: -2.7%"}
{"smiles": "O=P(Nc1nccs1)(Oc1ccccc1)Oc1ccccc1", "activation": "inactive: 1.6%"}
{"smiles": "O=P(Nc1nccs1)(c1ccccc1)c1nc2ccccc2s1", "note": "(stereo not given)", "activation": "inactive: 6.7%"}
{"smiles": "O=P1(Nc2ncccn2)COc2ccccc2OC1", "activation": "inactive: 4.1%"}
{"smiles": "Cc1ccc(OCC(=O)OC2CN3CCC2CC3)cc1", "note": "(stereo not given)", "activation": "inactive: 5.4%"}
{"smiles": "O=P1(Nc2ccc(Br)cn2)COc2ccccc2OC1", "activation": "inactive: -0.1%"}
{"smiles": "Cc1nn(-c2ccccc2)c2c1P(=O)(N1CCOCC1)N(C)C(c1ccccc1)=N2", "note": "(stereo not given)", "activation": "inactive: 0.8%"}
{"smiles": "CC1CCC(C(C)C)C(OP(=O)(Nc2ccccn2)c2ccccc2)C1", "note": "(stereo not given)", "activation": "inactive: 0.2%"}
{"smiles": "CN(C)C1(CNC(=O)c2ccc(S(C)(=O)=O)cc2)CCCCC1", "activation": "inactive: 2.4%"}
{"smiles": "CC(C)/C=N\\N=C(\\N)N[N+](=O)[O-]", "activation": "inactive: 3.3%"}
{"smiles": "CN(C(=O)Cc1ccc(Cl)c(Cl)c1)[C@@H]1CCCC[C@H]1N1CCCC1", "activation": "inactive: -7.7%"}
{"smiles": "CC1(CBr)Cn2c(nc3ccccc3c2=O)S1", "note": "(stereo not given)", "activation": "inactive: 5.9%"}
{"smiles": "O=P1(Nc2ccccn2)COc2ccccc2OC1", "activation": "inactive: 9.8%"}
{"smiles": "Clc1n[nH]nc1-c1nn[nH][15n]1", "activation": "inactive: 5.6%"}
